Assay results: patent publication US7371225B2, “Method for convection enhanced delivery of therapeutic agents” (The United States of America as represented by the …, priority 2002, dated 2008)

How the values were obtained:
rat putamen [1] = settings: in vivo
rat putamen [2] = assay: Safety and toxicity of the CT tracer IPA-HSA after CED to the rat putamen
putamen [3] = system: putamen; design: species or system rhesus monkeys; settings: rhesus monkey, in vivo
Experimental: The putamen in six adult rhesus monkeys (8-10 kg) was targeted for unilateral convection of IPA-BSA (n=3) or albumin-Gd-DTPA (n=3). Anesthesia was induced with ketamine (10 mg/kg), xylazine (0.5 mg/kg), and thiopental sodium (1 mg/kg). The animals were secured in a monkey stereotactic frame (Kopf Instruments, Tujunga, Calif.). A Hamilton 32-gauge metal blunt tip needle connected to a 250 μl Hamilton syringe (Thompson Instruments, Chantilly, Va.) was stereotactically inserted in the center of the right putamen (anteroposterior 15.5 mm, mediolateral 12 mm and dorsoventral 24.5 mm relative to the tympanic canals and the mid-sagittal sinus)^15. After a delay of 90 minutes, the infusion was begun at 1.0 μl/min. […]
CT and MRI images were analyzed in the MEDx software package (Sensor Systems, Inc., Sterling, Va.) running on a Sun workstation (Sun Microsystems, Inc., Palo Alto, Calif.). […] These were measured by volume segmentation using two different thresholds. Vd(1) was calculated as the volumes of distribution from CT and MRI containing at least 10% of the total increase in signal intensity due to the addition of contrast agent. A rectangular region of interest (ROI) over the infusion area was defined and in the corresponding site in the contralateral hemisphere, and the perfused maximal signal intensity (peak) and the unperfused maximal signal intensity (background) was measured. […]

putamen [4] = assay: Quantitative autoradiography (QAR) of co-infused 14C-BSA, tissue volume of distribution; design: species or system rhesus monkeys; settings: rhesus monkey, in vivo
Experimental: ^14C-methylated BSA (American Radiolabeled Chemicals, Inc., St Louis, Mo.) was co-infused with each tracer. After sacrifice, the brain was frozen at −70° C., 20-μm thick cryostat sections on collagen-coated glass slides were obtained, and exposed on a phosphor imaging plate (Fuji Medical Systems, Stamford, Conn.) along with ^14C plastic standards (American Radiolabeled Chemicals, Inc., St. Louis, Mo.) at room temperature. After one week, the imaging plate was digitally scanned in the FujiFilm BAS5000 Bio-imaging Analyzer. The images were calibrated using a previously established correlation between ^14C plastic standards and 20-μm rat brain sections containing ^14C. […] The areas of sections encompassing the perfused region were summed and multiplied by the spacing between sections. Profiles of the ^14C-BSA were obtained across the infusion in sections corresponding to the center of the infusion.

[5] = Stability of Gd-albumin conjugate following synthesis; type: physicochemical
Experimental: Gd (III) was then reacted with the HSA-1B4M at an initial 2:1 molar ratio (Gd/1B4M) using a standard solution of Gd (III) [Gd(NO3)2] at 6.42×10^−3 M. The pH of the Gd (III) solution was adjusted to 4.5 to 5.0 using 5 M NH4OAc and was added to HSA-1B4M dropwise while mixing the reaction. The mixture was allowed to proceed for 5 to 6 hrs at room temperature with rotation. The unreacted Gd (III) was removed by adding 0.5 ml of 0.1 M EDTA solution, followed by centrifugation. The final concentration of albumin was determined spectrophotometrically by measuring the absorbance at 280 nm. The percent of Gd (III) incorporation was determined by repeating the measurement of the number of chelating agents on the protein and noting the decrease due to their occupation by Gd (III). Each HSA molecule was linked to 5 Gd molecules. A stock solution of the Gd-albumin conjugate (28 mg/ml) in phosphate buffered saline was then infused into the animals. The formula of the conjugate is believed to be albumin-(Gd-1B4M)5.
While Gd is an excellent imaging moiety for MRI, it is neurotoxic in its free state. Thus, a stable construct in which Gd is permanently bound to albumin (or other protein, dendrimer or therapeutic agent) is desirable.

[6] = system: pontine region of the brainstem; assay: Convection-enhanced delivery (CED) of Gd-albumin conjugate to the primate brainstem with real-time and post-infusion MRI; type: in vivo, Rhesus primates (Macaca mulatta)
brainstem = assay: Safety and tissue toxicity of CED of Gd-albumin conjugate in the primate brainstem; type: in vivo, Rhesus primates (Macaca mulatta)
Experimental: Primates were also observed daily for medical or neurologic difficulties over the study period (18 to 35 days). Each animal underwent postoperative videotaping within 48 hours of infusion completion and within 24 hours of euthanization.
After sacrifice, the animals' brains were perfused with phosphate buffered saline followed by 10% formalin. The brainstems were then cut coronally in 20-μm thick serial sections. Tissue sections through the entire brainsterm were histologically processed, and representative sections from each tissue block were stained with hematoxylin and eosin, Luxol fast blue, and Nissl. Immunohistochemistry for glial fibrillary acidic protein was performed.

rat striatum = assay: Toxicity of Gd-albumin conjugate after CED to the rat striatum; type: in vivo, rats (Sprague-Dawley); settings: 10 μl CED to striatum, n=12
Experimental: All animal investigations were conducted in accordance with the National Institutes of Health guidelines on the use of animals in research, and were approved by the Animal Care and Use Committee of the National Institute of Neurological Disorders and Stroke. Adult male rats (Sprague-Dawley; n=12) weighing between 300 to 400 grams were anesthetized with isoflurane (2%) and placed in a Kopf stereotactic frame. A sagittal incision was made through the scalp to the level of the skull. A burr hole was placed over the right frontal region. A 32-gauge cannula attached to a 25 μl Hamilton syringe filled with Gd-bound albumin was stereotactically placed in the right striatum. The coordinates for placement of the cannula tip in the striatum were 0.5 mm anterior to bregma, 2.8 mm right of midline, and 5 mm below the level of the dura.
To distribute the infusate using convection, a non-compliant, gas-tight, infusion apparatus that has been described in detail previously was used (see, Lonser et al., “Direct convective delivery of macromolecules to the spinal cord,” J Neurosurg 89:616-622 (1998)). Briefly, the apparatus consists of a Harvard syringe pump that generates a continuous pressure gradient that is transmitted through a hydraulic drive that is attached to the infusate syringe plunger. Using this system, 10 μL Gd-albumin was delivered at a rate of 0.5 μL/minute into the striatum. […]

Substance: IPA-HSA: Iopanoic acid conjugated to HSA, 35-45 IPA per HSA, CT tracer used in rat toxicity study
- Direct toxicity or immunological reaction in the brain (rat putamen [1]): no evidence of direct toxicity or immunological reaction
- Behavioral changes (rat putamen [2]; 7, 14 and 39 days after single convective infusion): no behavioral changes
- Enhanced GFAP staining (rat putamen [2]; 14 days, edge of the infusion and along the needle track): minimal
- GFAP staining, treated versus untreated hemisphere (rat putamen [2]; 39 days): no difference in GFAP staining between the treated and untreated hemispheres
- Edema at the infusion site (fraction of animals) (rat putamen [2]; animals sacrificed after 7 days): ⅓
- Edema at the infusion site (rat putamen [2]; by 14 days): completely resolved
- Hemorrhage at the infusion site (rat putamen [2]; rat, in vivo): No hemorrhage occurred
- Reactive astrocytic proliferation surrounding the infused area (rat putamen [2]; rat, in vivo): no evidence of reactive astrocytic proliferation

Substance: albumin-Gd-DTPA: albumin-Gd-DTPA conjugate, 26 DTPA ligands linked to each albumin molecule, surrogate tracer for MRI
- Mean Vd(1) (putamen [3]): 2.55±0.44
- Mean Vd(2) (putamen [3]): 2.62±0.28
- Tissue distribution measured by QAR (putamen [4]): 3.86±1.05

Substance: human serum albumin conjugated to 5 gadolinium chelates of 2-(p-isothiocyanotobenzyl)-6-methyldiethylenetriamine pentaacetic acid [albumin-(Gd-1B4M)5]
- Binding of Gd in the conjugate following synthesis [5]: the Gd remained completely bound
- Solubility and aggregation following synthesis [5]: remain soluble, did not aggregate
- Post-infusion day 1 increase in Vd ([6]; Animal 2, compared to Vd immediately after infusion): 35%
- Homogeneity of concentration of delivered infusate in tissue ([6]; MRI line profiles through infused region): homogeneous
- Infusate visible on MRI through ([6]; post-infusion MRI): 4 post-infusion day
- Time by which MRI intensity of the conjugate faded to that of surrounding normal tissues ([6]; post-infusion MRI, n=2): ≤ 7 post-infusion day
- Tissue architecture of brainstem sections (brainstem; Luxol fast blue, Nissl's, hematoxylin and eosin): normal tissue architecture
- Glial fibrillary acidic protein staining (gliosis) (brainstem; rhesus monkey, in vivo): minimal gliosis limited to the region immediately surrounding the cannula tract
- Gross examination of the brain and brainstem (brainstem; rhesus monkey, in vivo): normal weight and no evidence of edema
- Neurologic deficit after infusion (brainstem; serial clinical examinations up to 35 days): No animals had a detectable neurologic deficit
- Histologic analysis (rat striatum): normal tissue architecture with minimal gliosis limited to the immediate region surrounding the infusion cannula
- Clinical deficits (rat striatum; observation up to 60 days): None of the animals exhibited clinical deficits
